Values of other authors in patent publication US20260034075A1, “CHOLINE CARBOXYLIC ACID BASED IONIC LIQUIDS AS ANTIMICROBIAL AGENTS” (University of Mississippi, priority 2022, published 2026).

Test system: E. coli
Conditions: individual reagents of the IL, compared with CADDA 1:1; cited from earlier work

CCCCCCCCCCCC(=O)O [lauric acid]
bactericidal activity (concentration) of individual reagent: around 1562.5 mM
